# Experiments:
# [1] = tested on: hERG; settings: 6 µM vs fCmax
# [2] = tested on: hERG; settings: ref Titier et al., 2005; cited from earlier work
smiles,measurement,setting,value
Cc1cc2c(s1)Nc1ccccc1N=C2N1CCN(C)CC1 [Olanzapine],hERG-inhibiting concentration as multiple of fCmax,[1],90 fold
same,concentration found to significantly inhibit hERG,[2],6 µM
